These results are taken from ChEMBL document CHEMBL1148673, “Peptidomimetic C5a receptor antagonists with hydrophobic substitutions at the C-terminus: increased receptor specificity and in vivo activity” (Bioorg Med Chem Lett, 2006).

Each structure is given as a SMILES string.

For the data set, the species on record is Homo sapiens. Nature of the data set: Stability in human plasma after 1 hr at 37 degC.

Turning to `CC(C)CC[C@@H](NC(=O)[C@@H]1CCCN1C(=O)[C@H](CCCN)NC(=O)[C@H](Cc1ccccc1)NC(=O)[C@@H]1CC(=O)NC(=O)N1)C(=O)N[C@@H](Cc1ccc(F)cc1)C(=O)N[C@@H](Cc1ccccc1)C(N)=O`, the amount remaining at 1 h was found to be 100%.
